Results: PubChem BioAssay (NCI)
Some results for these compounds are left out of this collection, so the calls shown say nothing about other tests.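 Method: 48-hour compound exposure of cells in 96-well plates, five concentrations, linear interpolation of endpoints. GI50 marks 50% less growth. TGI: concentration producing complete growth inhibition.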

Tests used:
Test in all cases: NCI-60 cell line screen, 48 h
[1] = tested on: 786-0 renal
[2] = tested on: A498 renal
[3] = tested on: A549 NSCLC
[4] = tested on: ACHN renal
[5] = tested on: CAKI-1 renal
[6] = tested on: CCRF-CEM leukemia
[7] = tested on: COLO 205 colon
[8] = tested on: DU-145 prostate
[9] = tested on: EKVX NSCLC
[10] = tested on: HCC-2998 colon
[11] = tested on: HCT-116 colon
[12] = tested on: HCT-15 colon
[13] = tested on: HL-60(TB) leukemia
[14] = tested on: HOP-62 NSCLC
[15] = tested on: HOP-92 NSCLC
[16] = tested on: HS 578T breast
[17] = tested on: HT29 colon
[18] = tested on: IGROV1 ovarian
[19] = tested on: K-562 leukemia
[20] = tested on: KM12 colon
[21] = tested on: LOX IMVI melanoma
[22] = tested on: M14 melanoma
[23] = tested on: MALME-3M melanoma
[24] = tested on: MCF7 breast
[25] = tested on: MDA-MB-231 breast
[26] = tested on: MDA-MB-435
[27] = tested on: MDA-N
[28] = tested on: MOLT-4 leukemia

C/C=C\C(O)(C(=O)OC1CN2CCC1CC2)C1CCCCC1 (stereo unspecified)
GI50 [1]: > 100 µM | TGI [1]: > 100 µM | GI50 [2]: > 100 µM | TGI [2]: > 100 µM | GI50 [3]: > 100 µM | TGI [3]: > 100 µM | GI50 [4]: > 100 µM | TGI [4]: > 100 µM | GI50 [5]: > 100 µM | TGI [5]: > 100 µM | GI50 [6]: > 100 µM | TGI [6]: > 100 µM | GI50 [7]: > 100 µM | TGI [7]: > 100 µM | GI50 [8]: > 100 µM | TGI [8]: > 100 µM | GI50 [9]: > 100 µM | TGI [9]: > 100 µM | GI50 [10]: > 100 µM | TGI [10]: > 100 µM | GI50 [11]: > 100 µM | TGI [11]: > 100 µM | GI50 [12]: > 100 µM | TGI [12]: > 100 µM | GI50 [13]: > 100 µM | TGI [13]: > 100 µM | GI50 [14]: > 100 µM | TGI [14]: > 100 µM | GI50 [15]: 49.8 µM | TGI [15]: > 100 µM | GI50 [16]: > 100 µM | TGI [16]: > 100 µM | GI50 [17]: > 100 µM | TGI [17]: > 100 µM | GI50 [18]: > 100 µM | TGI [18]: > 100 µM | GI50 [19]: > 100 µM | TGI [19]: > 100 µM | GI50 [20]: > 100 µM | TGI [20]: > 100 µM | GI50 [21]: > 100 µM | TGI [21]: > 100 µM | GI50 [22]: > 100 µM | TGI [22]: > 100 µM | GI50 [23]: > 100 µM | TGI [23]: > 100 µM | GI50 [24]: > 100 µM | TGI [24]: > 100 µM | GI50 [25]: > 100 µM | TGI [25]: > 100 µM | GI50 [26]: > 100 µM | TGI [26]: > 100 µM | GI50 [27]: > 100 µM | TGI [27]: > 100 µM | GI50 [28]: > 100 µM | TGI [28]: > 100 µM
